This note sets out measurements from article PMC12595434, “Development of retinoid nuclear receptor pathway antagonists through targeting aldehyde dehydrogenase 1A3” (iScience, 2025).

The chains behind the UniProt entries cited, without tags or fusion partners.
UniProt P47895, whole entry: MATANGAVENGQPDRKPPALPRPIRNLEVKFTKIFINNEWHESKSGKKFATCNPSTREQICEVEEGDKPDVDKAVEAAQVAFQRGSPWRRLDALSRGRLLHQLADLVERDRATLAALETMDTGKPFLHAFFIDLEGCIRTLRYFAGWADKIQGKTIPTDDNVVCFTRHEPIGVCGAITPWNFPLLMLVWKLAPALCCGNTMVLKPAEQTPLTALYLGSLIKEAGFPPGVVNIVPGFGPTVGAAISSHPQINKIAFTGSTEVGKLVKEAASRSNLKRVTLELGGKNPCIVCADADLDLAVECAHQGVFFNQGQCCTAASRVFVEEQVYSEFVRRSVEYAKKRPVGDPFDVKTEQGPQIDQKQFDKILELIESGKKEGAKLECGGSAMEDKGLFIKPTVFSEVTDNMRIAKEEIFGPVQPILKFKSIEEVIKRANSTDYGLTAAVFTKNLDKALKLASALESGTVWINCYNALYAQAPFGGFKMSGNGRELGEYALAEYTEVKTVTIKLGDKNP
UniProt Q9JHW9, whole entry: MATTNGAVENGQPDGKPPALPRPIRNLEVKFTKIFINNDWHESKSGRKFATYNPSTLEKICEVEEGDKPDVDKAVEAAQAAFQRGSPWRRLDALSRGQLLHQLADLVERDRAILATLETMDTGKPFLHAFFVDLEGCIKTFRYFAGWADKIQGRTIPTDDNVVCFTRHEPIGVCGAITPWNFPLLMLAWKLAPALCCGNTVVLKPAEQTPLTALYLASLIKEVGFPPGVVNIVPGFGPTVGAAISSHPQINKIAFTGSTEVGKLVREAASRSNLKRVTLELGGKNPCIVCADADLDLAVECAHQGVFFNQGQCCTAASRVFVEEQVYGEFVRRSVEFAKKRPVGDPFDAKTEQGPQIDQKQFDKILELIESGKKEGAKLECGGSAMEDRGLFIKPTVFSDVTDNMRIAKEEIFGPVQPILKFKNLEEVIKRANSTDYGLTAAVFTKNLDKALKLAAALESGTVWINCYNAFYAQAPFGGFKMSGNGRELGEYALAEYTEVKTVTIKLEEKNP

The target in test [1] is T1, human ALDH1A3 (Homo sapiens, UniProt P47895). Kind of test: Recombinant enzyme activity assay. Particulars: read-out: IC50 molecular, human ALDH1A3; recombinant activity assay (Table 1).
For another test, the target named is mouse ALDH1A3 (Mus musculus, UniProt Q9JHW9). Kind of test: Recombinant enzyme activity assay. Particulars: read-out: IC50 molecular, mouse ALDH1A3; recombinant activity assay (Table 1).
For test [2], the target named is T1, human ALDH1A3. Kind of test: Microscale thermophoresis (MST) binding. Particulars: read-out: Microscale thermophoresis; biophysical assay (Table 1). (In general: Microscale thermophoresis detects binding through changes in fluorescence in a small temperature gradient.)
Another test has as its target purified human ALDH1A3 (Homo sapiens, UniProt P47895). Put plainly: Nanoscale differential scanning fluorimetry (DSF). The note with it: data not shown. In general terms: DSF heats the sample and reads unfolding from a dye or from intrinsic fluorescence.
The target in test [3] is human ALDH1A3 in A375 cells (Homo sapiens, UniProt P47895). Put plainly: Aldefluor assay in A375 cells. Particulars: read-out: EC50 cellular, human ALDH1A3.
For test [4], the target named is ALDH1A3 in SUM159-M1a-ALDH1A3 cells (Homo sapiens, UniProt P47895). Put plainly: Aldefluor dose titration in SUM159-M1a-ALDH1A3 cells. The note with it: compared with MBE1.5A, C, or D.
The subject of test [5] is endogenous ALDH1A3 in MDA-MB-468 cells. Put plainly: Quantification of atRA in cells. Particulars: 24 h, dose titration. The class given is cell-based, human.

For the compound `CC(C)c1ccccc1C(=O)Nc1cc2c(cc1F)NC(=O)CC2`, the results for the IC50 on human ALDH1A3 [1] and at mouse ALDH1A3 were 2710 nM and 1850 nM, respectively. Besides, at human ALDH1A3 [2], the Kd was found to be 1800 nM. Besides, the “thermal stabilization of purified ALDH1A3 (in words)” value on purified human ALDH1A3 is on record as “little stabilization”. Further, the EC50 (in general, the concentration giving half of the maximal effect) in test [3] was 155 nM. Moreover, the “potency in Aldefluor dose titration (in words)” value in test [4] was “far less potent”. In addition, in test [5], the “reduction of atRA formation (in words)” value is reported as “higher IC50”.
